Reference: PubChem BioAssay AID1259311 (ICCB-Longwood Screening Facility, Harvard Medical School, 2017)
Only a part is listed here, and it is no random draw. Some of these compounds have results that are not shown, active ones among them. The source made the active and inactive calls. No stated cut-off is given here; in the data, active means inhibition above about 85%; inactive means the rest.

assay: growth inhibition of S. aureus RN4220, primary screen, OD600 (AID 1259311); settings: OD600, 16 h, stronger effect = higher value;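 further: plate controls were untreated cells for no effect and reference antibiotic for full effect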

Structure (SMILES)	inhibition
O=C(NCC1(N2CCCCC2)CCCCC1)c1cccc(Cl)c1	inactive: -1.69%
COc1cccc(C(=O)NCC2(N3CCCCC3)CCCCC2)c1	inactive: 5.55%
COc1ccc(Cl)cc1C(=O)NCC1(N(C)C)CCCCC1	inactive: -0.53%
COc1cc(C(=O)NCC2(N(C)C)CCCCC2)c([N+](=O)[O-])cc1OC	inactive: 0.764%
CN(C)C1(CNC(=O)c2ccc(Br)cc2)CCCCC1	inactive: -1.82%
CN(C)c1cccc(C(=O)NCC2(N(C)C)CCCCC2)c1	inactive: 3.78%
CC(C)Oc1ccc(C(=O)NCC2(N(C)C)CCCCC2)cc1	inactive: 3.17%
O=C(OCCN1CCCC1)C(O)(c1ccccc1)c1ccccc1	inactive: 2.53%
COc1ccc(Br)c(C(=O)NCC2(N3CCCCC3)CCCCC2)c1	inactive: 1.71%
O=C(OC1CN2CCC1CC2)C(CO)(c1ccccc1)c1ccccc1 (stereo not drawn)	inactive: 9.51%
Cc1ccc(C(=O)NCC2(N3CCCCC3)CCCCC2)cc1	inactive: 3.82%
COc1cc(SC)ccc1C(=O)NCC1(N(C)C)CCCCC1	inactive: 0.262%
CN1[C@@H]2CC[C@H]1CC(OC(=O)C(O)(c1ccccc1)c1ccccc1)C2 (stereo partly drawn)	inactive: 2.02%
O=C(NCC1(N2CCCCC2)CCCCC1)c1cc([N+](=O)[O-])ccc1Cl	inactive: 2.6%
CCN1CCCC(OC(=O)C2(O)c3ccccc3C=Cc3ccccc32)C1 (stereo not drawn)	inactive: 2.33%
Cc1cc(C(=O)NCC2(N3CCCCC3)CCCCC2)ccc1[N+](=O)[O-]	inactive: 2.03%
O=C(NCC1(N2CCCCC2)CCCCC1)c1cccc(Br)c1	inactive: 2.65%
COc1ccc(C(=O)NCC2(N(C)C)CCCCC2)cc1	inactive: 4.67%
CN(C)CCOC(=O)C(O)(c1ccccc1)C1CCCCC1 (stereo not drawn)	inactive: 5%
O=C(NCC1(N2CCCCC2)CCCCC1)c1cc(F)c(F)cc1Cl	inactive: 6.79%
Cc1ccccc1C(=O)NCC1(N2CCCCC2)CCCCC1	inactive: 4.22%
CN(C)c1ccc(C(=O)NCC2(N(C)C)CCCCC2)cc1	inactive: 0.363%
CN(C)C1CCCC1OC(=O)C(O)(c1ccccc1)c1ccccc1 (stereo not drawn)	inactive: 2.15%
